Experimental data: patent publication US20050239758A1, “Hormone treatment of multiple sclerosis” (priority 2004, published 2005)

Tests used:
serum anti-estrogen IgE = assay: Competition ELISA: absorption of serum anti-estrogen IgE with specific and non-specific antigens; format: binding, human; settings: result in words
Experimental: (§1) Enzyme-linked immunosorbent assay (ELISA) was used for testing antibodies against estrogen and progesterone in the sera of patients with premenstrual asthma and with control subjects. Different rows of microtiter plates (Costar) were coated either with 100 μl of BSA concentration of 10 μg/mL or 100 μl of estrogen-BSA or progesterone-BSA optimal concentration of 10 μg/mL in 0.1 m carbonate-bicarbonate buffer (pH 9.5). Plates were incubated overnight at 4° C. and then washed three times with […] of Tris-buffered saline (TBS) containing 0.05% Tween 20, pH 7.4. […] Plates were washed with PBS-Tween 20 and then 100 μl of control or patient's serum was added to duplicate wells coated either with BSA alone or with estrogen or progesterone bound to BSA. […] Plates were incubated for 2 h (for IgG and IgM) and overnight (for IgE), and then washed four times with PBS-Tween 20. Alkaline-phosphatase-conjugated goat anti-human IgG, IgM or IgE F(ab′)2 fragment at optimal dilution of 1:700 (IgG); 1:500 (IgM) and 1:250 (IgE) was added to corresponding wells. The plates were then incubated for an additional 2 h at room temperature. […] The optical density was read at 405 nm (OD405) with a microtiter reader. […]
(§2) For this, microtiter plates were coated with hormones and blocked by the addition of 2% BSA in PBST. […] Results were calculated as a percentage of inhibition in antigen-antibody reaction. […]

serum anti-estrogen IgG = assay: Competition ELISA: absorption of serum anti-estrogen IgG with specific and non-specific antigens; format: binding, human; settings: result in words
Experimental: as §1, §2

With human serum albumin [HSA] the “Absorption of serum IgE antibodies by antigen added to the liquid phase” value (serum anti-estrogen IgE) was “did not absorb” and the “Absorption of serum IgG antibodies by antigen added to the liquid phase” value (serum anti-estrogen IgG) was “did not absorb”.
